The record followed here is patent US9458140B2, “Furanone compounds as kinase inhibitors” (Eternity Bioscience Inc., priority 2013, dated 2016).

Chains of the proteins cited; added tags and fusions are not shown.
UniProt P15056, whole entry V600E: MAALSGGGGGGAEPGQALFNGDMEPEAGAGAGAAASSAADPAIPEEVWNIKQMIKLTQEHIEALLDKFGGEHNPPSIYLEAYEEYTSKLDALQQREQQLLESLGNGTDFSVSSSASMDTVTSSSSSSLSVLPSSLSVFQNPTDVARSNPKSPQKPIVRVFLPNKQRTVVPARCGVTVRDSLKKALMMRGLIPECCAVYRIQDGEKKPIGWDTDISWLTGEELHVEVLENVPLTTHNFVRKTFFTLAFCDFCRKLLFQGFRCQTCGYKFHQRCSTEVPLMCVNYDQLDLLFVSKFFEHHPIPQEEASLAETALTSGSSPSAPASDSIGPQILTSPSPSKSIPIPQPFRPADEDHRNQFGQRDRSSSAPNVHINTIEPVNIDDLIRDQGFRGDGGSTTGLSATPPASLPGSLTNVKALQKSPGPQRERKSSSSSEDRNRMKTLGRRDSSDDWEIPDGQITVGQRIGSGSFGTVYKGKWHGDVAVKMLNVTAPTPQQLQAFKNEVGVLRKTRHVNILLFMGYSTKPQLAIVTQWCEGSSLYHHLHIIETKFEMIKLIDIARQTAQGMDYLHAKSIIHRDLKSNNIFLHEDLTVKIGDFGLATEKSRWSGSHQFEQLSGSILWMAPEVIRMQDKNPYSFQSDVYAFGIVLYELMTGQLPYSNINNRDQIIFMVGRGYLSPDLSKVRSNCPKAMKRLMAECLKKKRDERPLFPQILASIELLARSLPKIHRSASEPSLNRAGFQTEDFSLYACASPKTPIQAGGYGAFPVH

One experiment relates to A375 cells. Put plainly: Cell proliferation assay (CellTiter-Glo), A375 cell growth. The settings on record: read-out: A375 cell growth IC50, 3-day treatment. How it is done:
Cell proliferation assay: A375, Colo-205, Calu-6, and SW-480 cells were purchased from American Type Culture Collection (USA). All cells were cultured in the recommended medium and serum concentration. Cells were maintained at 37° C. in a humidified atmosphere with 5% CO2. For cell proliferation assay, cells were seeded in 96-well pates at a density of 1,000 to 5,000 cells per well and cultured overnight at 37° C. in a medium supplemented with 5-10% FBS. On the next day, the test articles at various concentrations or vehicle control (1% DMSO) were added into cell culture. After 3-day treatment, the growth of cells was assayed by the CellTiter-Glo® Luminestceaent Cell Viability Assay (Promega). IC50 value was calculated using GraphPad Prism by plotting the logarithm of the concentration versus percent inhibition of cell growth.

In the next experiment the target is BRAF^V600E (Homo sapiens (Human), UniProt P15056, V600E). Put plainly: BRAF^V600E enzymatic activity assay (LanthaScreen kinase assay). The settings on record: read-out: BRAF^V600E Lantha IC50; LanthaScreen TR-FRET, ATP 2 μM, 60 minutes, room temperature.

For `CC1(C)OC(c2ccnc(N)n2)=C(c2cccc(NS(=O)(=O)c3c(F)cccc3F)c2F)C1=O`, the results for the IC50 in the experiment with A375 cells and at BRAF^V600E were 970 nM and 160 nM, respectively.
